In patent US11135306B2, “Antibody-drug conjugates” (CHO Pharma Inc., priority 2016, dated 2021):

Test system: BT474 cells
Assay: Cytotoxicity assay (CellTiter-Glo) in BT474 cells
Type: cell-based
Settings: BT474, FIG. 9, tested concentrations

TRZ: IgG1κ anti-HER2 trastuzumab TRZ; Herceptin, Roche (native Herceptin)
cytotoxicity (in words): minimal cytotoxicity
